The numbers were not newly measured in patent US11951152B1, “Microparticle compositions for controlled delivery of telmisartan and actinomycin D” (University of South Florida, priority 2019, dated 2024), which cites them from elsewhere.

In the series the target is angiotensin II receptor type 1 (AT1) (Homo sapiens, UniProt P30556). As to conditions: AT1 versus AT2 selectivity.

With `CCCc1nc2c(C)cc(-c3nc4ccccc4n3C)cc2n1Cc1ccc(-c2ccccc2C(=O)O)cc1` [Telmisartan], the “binding affinity greater for AT1 than for AT2” value is “about 3000 times”.
